One assay concerns chromatophores. Kind of assay: cells. The following applies: read-out: Threshold concentration PPM.

The structures appear in SMILES notation.

As for `N=C(N)NCCN1CCCCCCC1` [Guanethidine], in the assay with chromatophores, the minimal effective concentration was in the range of 100 to 1000 µg/mL.
On the same count and under the same terms, next, `CN(C)CCCN1c2ccccc2CCc2ccccc21` [Imipramine]: 1 to 100 µg/mL.
Consider `COc1ccc(CCN(C)CCCC(C#N)(c2ccc(OC)c(OC)c2)C(C)C)cc1OC` (stereo not drawn) [Verapamil], for which the effect on melanophores entry with melanophores was “does not alter melanophores”.

Values taken from US20050074834A1 (priority 2001, published 2005).
